For this data set, the system named is Jeko-1 (SOX11+). Put plainly: Cell viability assay (CellTiter-Blue resazurin reduction). In kind it is cell-based. The following applies: JeKo-1 cells, 20 μM compound, 72 hours, normalized to 0.2% DMSO. Here is the method: Cell viability was determined by a fluorometric resazurin reduction method (CellTiter-Blue; Promega, Madison, Wis.) following the manufacturer's instructions. […] Cells were incubated for 72 hours. After incubation, 20 μl CellTiter-Blue Cell was added to each well and incubated for another 2 hours. […] The number of viable cells in each treated well was calculated, based on the linear least squares regression of the standard curve (OD vs. cell concentration). The viability of cells treated with compounds was normalized to the viability of cells treated with 0.2% Dimethyl sulfoxide (DMSO). Cell counts were confirmed with Trypan Blue Exclusion Assay on the Countess automated cell counter (Invitrogen) according to the manufacturer's specifications. The average and mean standard deviation were calculated from three separate experiments. IC50 values were calculated using the GraphPad Prism (version 4.00) based on a sigmoidal dose-response equation.

Consider `CC1Sc2ccc(C(=O)Nc3ccc(CNc4cccc(S(=O)(=O)F)c4)cc3)cc2NC1=O` (stereo not shown), for which the “Jeko-1 Viability at 20 μM (%)” value is given as 19.74%.
